Experimental data as given in ChEMBL document CHEMBL3621116, “Benzimidazole Derivatives as Potent JAK1-Selective Inhibitors” (J Med Chem, 2015).

Amino acid sequences for entries named in this document (tags omitted). A change or cut given only in a name is not applied to a line headed by its entry.
UniProt P29597: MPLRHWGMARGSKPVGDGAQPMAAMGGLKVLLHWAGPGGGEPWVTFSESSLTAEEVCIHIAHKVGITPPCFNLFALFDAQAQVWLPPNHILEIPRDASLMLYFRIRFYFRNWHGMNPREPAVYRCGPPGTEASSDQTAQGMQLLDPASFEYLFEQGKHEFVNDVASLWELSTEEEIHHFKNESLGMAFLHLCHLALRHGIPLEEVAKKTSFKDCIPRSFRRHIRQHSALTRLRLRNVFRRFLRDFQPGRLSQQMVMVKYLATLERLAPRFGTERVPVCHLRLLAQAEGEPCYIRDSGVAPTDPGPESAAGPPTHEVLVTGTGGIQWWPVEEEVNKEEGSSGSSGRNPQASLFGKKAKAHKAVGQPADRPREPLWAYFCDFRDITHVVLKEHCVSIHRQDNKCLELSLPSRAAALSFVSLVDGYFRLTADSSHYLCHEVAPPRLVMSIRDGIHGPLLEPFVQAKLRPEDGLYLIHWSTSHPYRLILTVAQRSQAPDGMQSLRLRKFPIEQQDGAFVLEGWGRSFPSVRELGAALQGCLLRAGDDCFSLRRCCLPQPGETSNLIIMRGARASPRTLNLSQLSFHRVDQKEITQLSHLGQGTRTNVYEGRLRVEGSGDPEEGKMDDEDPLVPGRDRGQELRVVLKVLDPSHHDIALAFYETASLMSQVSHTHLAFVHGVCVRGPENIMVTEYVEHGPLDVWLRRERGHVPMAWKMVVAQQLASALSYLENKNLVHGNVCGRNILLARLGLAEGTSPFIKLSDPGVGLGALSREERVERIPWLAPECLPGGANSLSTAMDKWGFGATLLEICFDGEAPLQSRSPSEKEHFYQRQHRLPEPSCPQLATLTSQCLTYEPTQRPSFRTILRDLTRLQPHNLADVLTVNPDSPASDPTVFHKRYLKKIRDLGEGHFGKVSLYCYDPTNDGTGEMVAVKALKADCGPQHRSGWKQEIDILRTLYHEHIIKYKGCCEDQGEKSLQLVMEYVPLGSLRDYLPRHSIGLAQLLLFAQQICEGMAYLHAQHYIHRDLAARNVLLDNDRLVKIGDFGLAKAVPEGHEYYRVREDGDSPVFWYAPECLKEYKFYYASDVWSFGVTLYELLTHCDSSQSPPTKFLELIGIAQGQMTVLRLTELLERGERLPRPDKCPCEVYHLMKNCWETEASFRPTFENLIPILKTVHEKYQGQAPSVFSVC

Target: Non-receptor tyrosine-protein kinase TYK2 (Homo sapiens, UniProt P29597)
Assay: Inhibition of Tyk2 (unknown origin)

For `CC[C@@](C)(Nc1ccnc(-c2c[nH]c3ncccc23)n1)C(=O)NCC(F)(F)F` [DECERNOTINIB], which IC50 is on record?
The IC50 was 11 nM.
